Assay results as given in US11298361B2, “Fused benzazepines for treatment of Tourette's Syndrome” (EMALEX BIOSCIENCES, INC., priority 2012, dated 2022).

Chains of the proteins cited; added tags and fusions are not shown.
UniProt P61169, whole entry: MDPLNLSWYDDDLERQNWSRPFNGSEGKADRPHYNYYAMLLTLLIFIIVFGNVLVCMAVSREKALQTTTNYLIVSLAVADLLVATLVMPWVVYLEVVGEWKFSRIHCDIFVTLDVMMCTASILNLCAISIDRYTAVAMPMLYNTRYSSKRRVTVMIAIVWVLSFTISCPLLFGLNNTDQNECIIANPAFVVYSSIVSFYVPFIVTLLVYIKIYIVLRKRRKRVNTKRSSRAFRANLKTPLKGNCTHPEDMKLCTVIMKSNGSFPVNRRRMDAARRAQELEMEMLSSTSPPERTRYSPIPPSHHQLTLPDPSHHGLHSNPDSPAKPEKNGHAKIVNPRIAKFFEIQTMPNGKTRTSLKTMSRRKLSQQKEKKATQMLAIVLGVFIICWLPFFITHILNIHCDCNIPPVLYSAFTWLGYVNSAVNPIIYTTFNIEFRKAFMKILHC
UniProt P14842, whole entry: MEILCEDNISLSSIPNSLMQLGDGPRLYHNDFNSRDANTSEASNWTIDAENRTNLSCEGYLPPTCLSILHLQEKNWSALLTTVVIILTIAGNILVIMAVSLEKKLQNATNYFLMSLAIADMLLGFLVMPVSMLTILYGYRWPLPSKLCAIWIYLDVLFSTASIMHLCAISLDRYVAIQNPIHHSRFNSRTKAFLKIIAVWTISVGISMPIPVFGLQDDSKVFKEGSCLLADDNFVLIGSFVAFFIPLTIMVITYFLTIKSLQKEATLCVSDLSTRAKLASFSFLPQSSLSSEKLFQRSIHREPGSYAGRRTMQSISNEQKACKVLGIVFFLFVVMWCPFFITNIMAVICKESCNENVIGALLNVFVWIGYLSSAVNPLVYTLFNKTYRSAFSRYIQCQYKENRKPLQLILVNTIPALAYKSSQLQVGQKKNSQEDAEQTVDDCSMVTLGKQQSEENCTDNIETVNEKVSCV
UniProt P14416, whole entry: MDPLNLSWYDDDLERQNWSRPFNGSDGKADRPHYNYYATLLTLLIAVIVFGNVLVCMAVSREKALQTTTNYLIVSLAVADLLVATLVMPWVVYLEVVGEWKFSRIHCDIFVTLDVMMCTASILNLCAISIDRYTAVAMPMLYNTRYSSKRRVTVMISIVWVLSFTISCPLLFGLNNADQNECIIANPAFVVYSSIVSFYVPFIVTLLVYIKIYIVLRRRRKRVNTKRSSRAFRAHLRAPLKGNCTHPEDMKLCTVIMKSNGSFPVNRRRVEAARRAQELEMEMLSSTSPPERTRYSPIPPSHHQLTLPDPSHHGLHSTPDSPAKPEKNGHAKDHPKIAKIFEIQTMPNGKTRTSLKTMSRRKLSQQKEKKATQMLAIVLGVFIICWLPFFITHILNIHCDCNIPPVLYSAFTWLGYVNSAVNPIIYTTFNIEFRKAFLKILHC
UniProt P35462, whole entry: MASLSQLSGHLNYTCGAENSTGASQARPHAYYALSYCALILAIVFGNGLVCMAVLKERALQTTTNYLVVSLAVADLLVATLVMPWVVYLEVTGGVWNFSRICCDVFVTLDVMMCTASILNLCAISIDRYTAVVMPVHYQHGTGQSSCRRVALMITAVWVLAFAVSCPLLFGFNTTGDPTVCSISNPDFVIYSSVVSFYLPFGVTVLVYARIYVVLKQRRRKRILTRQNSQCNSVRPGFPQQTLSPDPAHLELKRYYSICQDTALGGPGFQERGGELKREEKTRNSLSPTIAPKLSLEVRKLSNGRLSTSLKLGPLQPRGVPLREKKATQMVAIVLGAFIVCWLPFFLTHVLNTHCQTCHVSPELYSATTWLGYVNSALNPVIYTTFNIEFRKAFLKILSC
UniProt P21917, whole entry: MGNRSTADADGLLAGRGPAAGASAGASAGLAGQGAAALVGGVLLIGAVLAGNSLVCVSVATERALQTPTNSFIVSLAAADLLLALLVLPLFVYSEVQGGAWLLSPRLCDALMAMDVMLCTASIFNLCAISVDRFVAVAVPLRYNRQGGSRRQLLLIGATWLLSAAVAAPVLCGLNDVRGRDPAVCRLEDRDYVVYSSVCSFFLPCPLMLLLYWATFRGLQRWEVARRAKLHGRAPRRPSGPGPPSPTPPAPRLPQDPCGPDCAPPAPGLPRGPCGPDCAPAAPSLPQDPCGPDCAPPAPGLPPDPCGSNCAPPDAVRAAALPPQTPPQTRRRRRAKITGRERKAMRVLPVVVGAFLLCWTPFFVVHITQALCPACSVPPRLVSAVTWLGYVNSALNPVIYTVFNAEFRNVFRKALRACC

Tests used:
[1] = biological target: D2 receptor (Rattus norvegicus, UniProt P61169); assay: Binding versus D2-selective ligand ^3H-spiperone; details: versus ^3H-spiperone
[2] = biological target: serotonin receptor (Rattus norvegicus, UniProt P14842); assay: Binding versus ^3H-ketanserin
[3] = biological target: T1, hD2 receptor (Homo sapiens, UniProt P14416); assay: Binding to cloned human receptors
T1 construct: expressed in transfected cells
Description: (§1) Activation of D1 receptors by dopamine and similar agonists stimulates the production of cyclic AMP (cAMP) via activation of adenylate cyclase. In vitro studies on this neuronal second messenger confirmed that ecopipam was an antagonist. […] To ensure that there was no species specificity to the receptor binding profile, ecopipam's potency and selectivity were evaluated using cloned human receptors. Ecopipam bound with high affinity to hD1/hD5 receptors, but was >700-fold selective versus the hD2, hD3, and hD4 receptors. Positron emission tomography (PET) studies using radiolabeled ecopipam have been conducted in healthy volunteers (Karlsson et al., Psychopharmacol. 121:300-308, 1995).

[4] = biological target: hD3 receptor (Homo sapiens, UniProt P35462); assay: Binding to cloned human receptors
Description: as §1, with “cyclase.” for “cyclase. In vitro studies on this neuronal second messenger confirmed that ecopipam was an antagonist.”, “Ecopipam bound with high affinity to hD1/hD5 receptors, but was >700-fold selective versus the hD2, hD3, and hD4 receptors.” left out

[5] = biological target: hD4 receptor (Homo sapiens, UniProt P21917); assay: Binding to cloned human receptors
Description: as §1, with “cyclase.” for “cyclase. In vitro studies on this neuronal second messenger confirmed that ecopipam was an antagonist.”, “Ecopipam bound with high affinity to hD1/hD5 receptors, but was >700-fold selective versus the hD2, hD3, and hD4 receptors.” left out

Structure (SMILES): CN1CCc2cc(Cl)c(O)cc2[C@H]2c3ccccc3CC[C@@H]21 [ecopipam, (−)-trans-6,7,7a,8,9,13b-hexahydro-3-chloro-2-hydroxy-N-methyl-5H-benzo [d]-naphtho-[2,1-b]azepine]
- Selectivity for the D1 vs. the D2 receptor [1]: roughly 1000 fold
- Selectivity versus the serotonin receptor [2]: ~100 fold
- Selectivity versus hD2 receptor [3]: > 700 fold
- Selectivity versus hD3 receptor [4]: > 700 fold
- Selectivity versus hD4 receptor [5]: > 700 fold
